Test results reported in ChEMBL document CHEMBL6096732 (J Med Chem, 2025).

What was measured:
[1] = Selectivity index, ratio of IC50 for recombinant HDAC1 (unknown origin) to IC50 for recombinant HDAC3 (unknown origin)
[2] = Selectivity index, ratio of IC50 for recombinant HDAC2 (unknown origin) to IC50 for recombinant HDAC3 (unknown origin)
[3] = Selectivity index, ratio of IC50 for recombinant HDAC4 (unknown origin) to IC50 for recombinant HDAC3 (unknown origin)
[4] = Selectivity index, ratio of IC50 for recombinant HDAC5 (unknown origin) to IC50 for recombinant HDAC3 (unknown origin)
[5] = Selectivity index, ratio of IC50 for recombinant full length human HDAC6 to IC50 for recombinant HDAC3 (unknown origin)
[6] = Selectivity index, ratio of IC50 for recombinant HDAC7 (unknown origin) to IC50 for recombinant HDAC3 (unknown origin)
[7] = Selectivity index, ratio of IC50 for recombinant HDAC8 (unknown origin) to IC50 for recombinant HDAC3 (unknown origin)
[8] = Selectivity index, ratio of IC50 for recombinant HDAC9 (unknown origin) to IC50 for recombinant HDAC3 (unknown origin)
[9] = Selectivity index, ratio of IC50 for recombinant HDAC10 (unknown origin) to IC50 for recombinant HDAC3 (unknown origin)
[10] = Selectivity index, ratio of IC50 for recombinant HDAC11 (unknown origin) to IC50 for recombinant HDAC3 (unknown origin)

CCCNNC(=O)c1ccc(Cn2c3ccccc3c3c(-c4ccccn4)nc4ccccc4c32)cc1
Ratio IC50 [1]: 161 | Ratio IC50 [2]: 232 | Ratio IC50 [3]: > 238 | Ratio IC50 [4]: > 238 | Ratio IC50 [5]: 195 | Ratio IC50 [6]: > 238 | Ratio IC50 [7]: > 238 | Ratio IC50 [8]: > 238 | Ratio IC50 [9]: > 238 | Ratio IC50 [10]: 211
